Experimental findings from US20060052582A1 (published 2006) are described below.

Chains of the proteins cited; added tags and fusions are not shown. Lines headed by an entry give the natural chain unless they say otherwise; changes in a name come on top.
UniProt Q8TD19: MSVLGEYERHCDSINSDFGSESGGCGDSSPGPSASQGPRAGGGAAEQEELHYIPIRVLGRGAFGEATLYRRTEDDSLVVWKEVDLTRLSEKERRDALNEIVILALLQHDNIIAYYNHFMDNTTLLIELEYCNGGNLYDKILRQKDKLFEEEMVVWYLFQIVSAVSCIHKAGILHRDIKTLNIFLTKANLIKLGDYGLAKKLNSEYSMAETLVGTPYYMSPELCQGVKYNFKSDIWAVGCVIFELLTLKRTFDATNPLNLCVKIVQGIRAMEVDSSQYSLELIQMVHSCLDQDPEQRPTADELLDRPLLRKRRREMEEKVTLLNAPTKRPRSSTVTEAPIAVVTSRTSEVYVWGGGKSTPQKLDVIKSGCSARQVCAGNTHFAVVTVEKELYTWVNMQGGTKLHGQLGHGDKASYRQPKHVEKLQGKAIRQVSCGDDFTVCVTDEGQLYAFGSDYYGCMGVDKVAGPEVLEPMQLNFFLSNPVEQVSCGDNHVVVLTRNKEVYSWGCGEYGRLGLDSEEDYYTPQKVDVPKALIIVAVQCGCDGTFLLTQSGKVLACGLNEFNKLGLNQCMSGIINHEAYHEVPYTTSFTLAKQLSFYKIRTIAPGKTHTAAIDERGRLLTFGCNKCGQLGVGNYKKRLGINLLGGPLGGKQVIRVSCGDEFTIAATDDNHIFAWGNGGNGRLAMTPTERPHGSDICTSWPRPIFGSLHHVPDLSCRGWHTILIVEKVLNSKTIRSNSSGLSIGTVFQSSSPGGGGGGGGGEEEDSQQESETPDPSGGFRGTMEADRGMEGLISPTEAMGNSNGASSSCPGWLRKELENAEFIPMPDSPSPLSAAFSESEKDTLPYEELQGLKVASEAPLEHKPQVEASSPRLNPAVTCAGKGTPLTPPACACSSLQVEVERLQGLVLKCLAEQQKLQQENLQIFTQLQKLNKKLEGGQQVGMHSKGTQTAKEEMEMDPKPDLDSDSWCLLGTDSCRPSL

The target in this experiment is T1, FLAG Nercc (1-891) (human, UniProt Q8TD19 1-891).
T1 sequence: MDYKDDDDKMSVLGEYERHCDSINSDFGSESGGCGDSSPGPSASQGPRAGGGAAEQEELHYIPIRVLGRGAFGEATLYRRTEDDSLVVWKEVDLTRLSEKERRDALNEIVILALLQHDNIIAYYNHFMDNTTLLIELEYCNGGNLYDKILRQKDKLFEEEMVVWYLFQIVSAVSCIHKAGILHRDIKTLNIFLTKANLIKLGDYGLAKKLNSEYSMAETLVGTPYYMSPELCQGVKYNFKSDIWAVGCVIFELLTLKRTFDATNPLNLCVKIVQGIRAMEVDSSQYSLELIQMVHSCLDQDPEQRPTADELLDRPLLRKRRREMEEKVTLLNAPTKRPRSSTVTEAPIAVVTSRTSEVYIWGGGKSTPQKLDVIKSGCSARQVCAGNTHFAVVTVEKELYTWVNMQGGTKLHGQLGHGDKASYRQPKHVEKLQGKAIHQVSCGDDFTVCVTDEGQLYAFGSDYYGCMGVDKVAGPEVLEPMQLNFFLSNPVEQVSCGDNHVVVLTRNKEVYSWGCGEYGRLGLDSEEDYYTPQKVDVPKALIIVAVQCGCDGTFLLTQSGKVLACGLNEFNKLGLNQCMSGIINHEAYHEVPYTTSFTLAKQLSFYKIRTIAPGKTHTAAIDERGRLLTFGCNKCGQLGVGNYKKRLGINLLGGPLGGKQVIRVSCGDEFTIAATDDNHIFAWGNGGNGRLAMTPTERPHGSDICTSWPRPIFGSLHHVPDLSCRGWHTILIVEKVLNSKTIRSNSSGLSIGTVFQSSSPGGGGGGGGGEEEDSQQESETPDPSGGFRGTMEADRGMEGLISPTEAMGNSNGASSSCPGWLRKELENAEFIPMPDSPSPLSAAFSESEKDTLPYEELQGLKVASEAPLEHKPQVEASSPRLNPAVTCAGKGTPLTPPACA
The experiment is described as follows: GST-agarose pull-down from co-transfected HEK293 cells, anti-FLAG blot.

B1: GST Nercc (891-940) (other)
chain: MSPILGYWKIKGLVQPTRLLLEYLEEKYEEHLYERDEGDKWRNKKFELGLEFPNLPYYIDGDVKLTQSMAIIRYIADKHNMLGGCPKERAEISMLEGAVLDIRYGVSRIAYSKDFETLKVDFLSKLPEMLKMFEDRLCHKTYLNGDHVTHPDFMLYDALDVVLYMDPMCLDAFPKLVCFKKRIEAIPQIDKYLKSSKYIAWPLQGWQATFGGGDHPPKSDLVPRGSPGACSSLQVEVERLQGLVLKCLAEQQKLQQENLQIFTQLQKLNKKLEGGQQV
notes: also called GST fusion to the Nercc coiled coil
In the case of B1, the binding result is given as “no binding”.
